Bioassay records as filed in PubChem.
NALP1 yeast inh – blocks the NALP1 inflammasome reconstituted in yeast; AID 2071; actives 0.61% (n = 280,000); inhibition, % at 10 µM; S. cerevisiae NALP1/ASC/caspase-1 growth, X-gal OD620, 72 h; in the data active = inhibition mostly above about 24%, no sharp cut-off; inactive = mostly below about 32%
ALR inh – human ALR oxidase inhibition via reduced H2O2. 290,000 tested, 3.8% active. AID 485317. purified ALR, DTT oxidation, H2O2 HRP-luminol luminescence. inhibition, % (test concentration not listed). P55789;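 active = mean and each replicate at 75% or more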;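 also: stock transfer was 7.5 nL into about 7.5 µL; 0% = neutral wells and 100% = wells with inactivated enzyme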
MC4R antagonist – blocks human MC4R cAMP signaling; P32245; MC4R-expressing cells, MTII-stimulated cAMP, LANCE TR-FRET; inhibition, % at 6.5 µM; actives 0.48% (n = 360,000); AID 540295;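 active = inhibition above its plate's cutoff, the mean of tested wells on that plate plus 3 SD, cut at about 29% in these data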;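 note: 0% = Melanotan II alone and 100% = Melanotan II plus saturating MCL0020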
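Assay system: U2OS cells stably expressing human melanocortin 4 receptor (MC4R) / Dosing: 6.5 µM / Timing: compound 30 min, challenge 1 h, detection 1 h / Measured by: Eu-cAMP/anti-cAMP TR-FRET, emission 671 nm / Replicates: singlicate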
HDAC3 inh – human HDAC3 inhibition; O15379; recombinant HDAC3, fluorogenic peptide/trypsin coupled, fluorescence; inhibition, % at 8.3 µM; actives 0.15% (n = 320,000); AID 2718; in the data active = inhibition above about 26%, passing the limit was not always enough
MC4R ag barr – agonists of human melanocortin 4 receptor (MC4R) beta-arrestin. P32245. U2OS MC4R beta-arrestin complementation, luminescence; percent of melanotan II response, DMSO zero. activation, % at 8.9 µM. actives 0.98% (n = 360,000);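 active = activation above a per-plate cutoff, the mean activation of sample wells on that plate plus 3 SD, cut at about 8% in these data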
Yeast UUG start – modulators of yeast start codon fidelity, primary screen, whole organism, S. cerevisiae, single point, plate reader; S. cerevisiae UUG-firefly luciferase reporter, luminescence/redox ratio; activity score, % at 18.7 µM; actives 0.13% (n = 350,000); AID 602363, 2012;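 active = replicate mean at a twofold rise or more, about +100% in these data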;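 also: firefly luciferase made from a UUG start codon reports start codon fidelity; reporter light over untreated wells divided by growth signal over untreated wells; some hits fall short of that in this replicate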
The depositor's hits bear a star; · = not tested or not shown. Only some compounds are listed: those with a hit (about 4.2% of all), similar ones and a draw of the others.

Labels used below: A = NALP1 yeast inh; B = ALR inh; C = MC4R antagonist; D = HDAC3 inh; E = MC4R ag barr; F = Yeast UUG start
CC(C)NC(=O)N(C)C[C@@H]1Oc2ccc(NC(=O)CCC(F)(F)F)cc2C(=O)N([C@H](C)CO)C[C@H]1C
  A: ·	B: ·	C: ·	D: ·	E: ·	F: 18

COc1ccc(Cn2c(-c3ccc(C)cc3)nc3c(c(=O)c4ccccc4n3C)c2=O)cc1
  A: 27	B: -2	C: 15	D: -1	E: 9.2*	F: ·

CC(=O)N1[C@@H]2Cn3c(ccc(C4=CCCCC4)c3=O)[C@H]1[C@@H](C(=O)NC1CCCC1)[C@@H]2CO
  A: ·	B: ·	C: ·	D: ·	E: ·	F: 14

CC(C)c1ccc(NC2CCCN(C(=O)c3ccnc(Cl)c3)C2)cc1 (stereo unspecified)
  A: 9	B: 54	C: 6	D: -2	E: -1	F: -8

CCc1[nH]nc(C(=O)N2CCCC(Nc3cccc(F)c3)C2)c1C (stereo unspecified)
  A: 10	B: 99*	C: 7	D: 4	E: -2	F: -27

CC(=O)c1[nH]c(C)c(C(=O)N2CCCC(Nc3cccc(F)c3)C2)c1C (stereo unspecified)
  A: 9	B: 75*	C: 13	D: 0	E: 1	F: 4

CCc1[nH]nc(C(=O)N2CCCC(Nc3ccc(C(C)C)cc3)C2)c1C (stereo unspecified)
  A: 10	B: 95*	C: 3	D: 3	E: -1	F: -4

CC(=O)c1[nH]c(C)c(C(=O)N2CCCC(Nc3ccc(C(C)C)cc3)C2)c1C (stereo unspecified)
  A: 22	B: ·	C: -3	D: ·	E: 2	F: -3

CCc1noc(C)c1C(=O)N1CCCC(Nc2cccc(F)c2)C1 (stereo unspecified)
  A: ·	B: ·	C: 14	D: ·	E: -2	F: -17

CN(C)CCCNC(=O)C[C@H]1CC[C@@H]2[C@@H](COc3ccc(NC(=O)c4ccc5c(c4)OCO5)cc3C(=O)N2C)O1
  A: ·	B: ·	C: ·	D: ·	E: ·	F: 22

Additional results follow:
Labels used below: A = NALP1 yeast inh; B = ALR inh; C = MC4R antagonist; D = HDAC3 inh; E = MC4R ag barr; F = Yeast UUG start
Cc1occc1-c1nnc(SCC(N)=O)o1
  A: 3	B: -5	C: 9	D: 1	E: 0	F: -5

Cc1occc1-c1nnc(SCC(=O)c2ccc(F)cc2)o1
  A: 3	B: 97*	C: 10	D: 6	E: 0	F: -7

CC(C)NC(=O)N(C)C[C@H]1Oc2cc(C#CC(C)(C)O)ccc2S(=O)(=O)N([C@@H](C)CO)C[C@@H]1C
  A: ·	B: ·	C: ·	D: ·	E: ·	F: -2

C[C@@H]1CN([C@H](C)CO)C(=O)Cc2cc(NC(=O)Nc3ccc(F)cc3)ccc2O[C@H]1CN(C)C(=O)Nc1ccccc1
  A: ·	B: ·	C: ·	D: ·	E: ·	F: -10

C[C@H]1CCCCO[C@H](CN(C)Cc2ccncc2)[C@@H](C)CN([C@@H](C)CO)C(=O)c2cc(NC(=O)c3ccccc3)ccc2O1
  A: ·	B: ·	C: ·	D: ·	E: ·	F: -4

COc1ccc(C/C(C)=N/NC(=S)Nc2ccc(Cl)cc2)cc1
  A: ·	B: ·	C: -2	D: 2	E: -3	F: -30

COc1ccc(C/C(C)=N/NC(=S)Nc2ccccc2)cc1
  A: 12	B: 82*	C: 2	D: 4	E: -2	F: -17

O=C1[C@@H]2Cc3c([nH]c4ccccc34)C(c3ccccc3)N2C(=O)CN1CCO (stereo partly specified)
  A: -9	B: 54	C: 8	D: 4	E: -1	F: 10

O=C1[C@@H]2Cc3c([nH]c4ccccc34)C(c3ccc(Cl)cc3)N2C(=O)CN1CCO (stereo partly specified)
  A: 7	B: 99*	C: 19	D: -5	E: 0	F: 4

COc1ccc(/C=C\C(=O)c2c(O)ccc3c(C)cc(=O)oc23)cc1
  A: 41	B: 97*	C: 6	D: 6	E: 0	F: -15

Additional compounds follow.
Labels used below: A = NALP1 yeast inh; B = ALR inh; C = MC4R antagonist; D = HDAC3 inh; E = MC4R ag barr; F = Yeast UUG start
Cc1cc(O)c(C(=O)/C=C/c2ccccc2)c(=O)o1
  A: 4	B: 8	C: 11	D: 3	E: 0	F: -7

COc1ccc(/C=C/C(=O)c2c(O)ccc3c(C)cc(=O)oc23)cc1
  A: 50	B: ·	C: 8	D: 7	E: -1	F: ·

CCOc1ccc(/C=C/C(=O)c2c(O)cc(C)oc2=O)cc1
  A: 1	B: 95*	C: 8	D: 5	E: 1	F: -19

c1ccc2nc(-c3nccs3)ccc2c1
  A: -5	B: -12	C: 3	D: 0	E: -1	F: ·

Clc1ccsc1-c1ccc2ccccc2n1
  A: 44*	B: 2	C: 9	D: 3	E: 1	F: -20

O=C(c1cc2ccccc2o1)N1CCN(S(=O)(=O)c2ccc(F)c(F)c2F)CC1
  A: ·	B: 0	C: 3	D: -4	E: 8.2*	F: -5

O=C(O)C1Sc2[nH]c(=O)sc2C2c3cc(Cl)ccc3OC(=O)C12 (stereo unspecified)
  A: -2	B: 94*	C: -3	D: 6	E: -3	F: -19

O=C(O)C1Sc2[nH]c(=O)sc2C2c3cc(Br)ccc3OC(=O)C12 (stereo unspecified)
  A: ·	B: ·	C: 17	D: 0	E: -2	F: ·

COC(=O)c1cc(NCc2c(F)cccc2Cl)ccc1N1CCOCC1
  A: 5	B: 99*	C: -1	D: 2	E: -2	F: -17

O=C(O)c1cc(NCc2ccc(F)cc2)ccc1N1CCOCC1
  A: 35	B: 97*	C: 3	D: -4	E: 5	F: -3

Additional entries follow.
Labels used below: A = NALP1 yeast inh; B = ALR inh; C = MC4R antagonist; D = HDAC3 inh; E = MC4R ag barr; F = Yeast UUG start
COC(=O)c1cc(NS(=O)(=O)c2cccc(Cl)c2)ccc1N1CCOCC1
  A: ·	B: 39	C: 10	D: 0	E: -1	F: ·

Fc1cccc(Cl)c1CNc1ccc(N2CCCC2)cc1
  A: 10	B: 99*	C: 6	D: -1	E: -2	F: -8

O=C(O)c1cc(NCc2cccs2)ccc1N1CCOCC1
  A: 2	B: 98*	C: 6	D: -2	E: 0	F: -13

O=C(Nc1ccccc1F)N1CCCCN2[C@H](C1)[C@H](c1ccc(-c3cccnc3)cc1)[C@@H]2CO
  A: ·	B: ·	C: ·	D: ·	E: ·	F: -12

COC(=O)c1cc(NCc2cccs2)ccc1N1CCOCC1
  A: -2	B: 100*	C: -12	D: 9	E: -3	F: -8

COC(=O)c1cc(NC(=O)c2cccs2)ccc1N1CCOCC1
  A: 10	B: 15	C: -7	D: 5	E: -2	F: ·

Cc1ccc(S(=O)(=O)Nc2cccc3c2O[C@@H](CN(C)C(=O)Nc2ccc4c(c2)OCO4)[C@@H](C)CN([C@H](C)CO)C3=O)cc1
  A: ·	B: ·	C: ·	D: ·	E: ·	F: 9

Cc1nn(Cc2ccccc2)c(N)c1-c1ccccc1
  A: -19	B: 97*	C: -2	D: 9	E: -1	F: -16

Cc1nn(C2CCCCC2)c(N)c1-c1ccccc1
  A: 0	B: 97*	C: 1	D: -6	E: -1	F: -7

C[C@H]1CN([C@@H](C)CO)C(=O)c2cc(/C=C/c3ccccc3)cnc2O[C@@H]1CN(C)C(=O)C1CCCCC1
  A: ·	B: ·	C: ·	D: ·	E: ·	F: 1

(continued)
Labels used below: A = NALP1 yeast inh; B = ALR inh; C = MC4R antagonist; D = HDAC3 inh; E = MC4R ag barr; F = Yeast UUG start
COc1ccc(-c2cn(C[C@@H](Cc3ccccc3)NC(=O)Nc3ccccc3)nn2)cc1OC
  A: ·	B: ·	C: ·	D: ·	E: ·	F: 19

CN1CCN(C2=C(Cl)C(=O)c3ccccc3C2=O)CC1
  A: ·	B: ·	C: -6	D: ·	E: -3	F: ·

CN1CCN(C2=C(Cl)C(=O)C(c3cnc(N4CCCCC4)s3)=C(Cl)C2=O)CC1
  A: 72*	B: 18	C: -2	D: 17	E: 2	F: -7

CCS(=O)(=O)NCC[C@H]1CC[C@H](NC(=O)Cc2ccccn2)[C@H](CO)O1
  A: ·	B: ·	C: ·	D: ·	E: ·	F: 10

Cc1ccc(C(=O)Nc2nc3nc(-c4ccccc4)cc(=O)n3[nH]2)cc1
  A: 6	B: 92*	C: -3	D: 4	E: -2	F: -11

O=C(C[C@H]1CC[C@@H]2[C@H](COC[C@H](O)CN2C(=O)Nc2ccc(F)cc2)O1)NCCc1ccccc1
  A: ·	B: ·	C: ·	D: ·	E: ·	F: -6

CC1CCc2c(sc3nc(C(C)(C)C)nc(N4CCN(C(=O)CCl)CC4)c23)C1 (stereo unspecified)
  A: -20	B: 3	C: 23	D: 19	E: 19*	F: -37

CCC(=O)N1CCN(c2nc(CC)nc3sc4c(c23)CCCC4)CC1
  A: 14	B: -9	C: 18	D: 7	E: 0	F: 4
